PubChem BioAssay AID485349 (National Center for Advancing Translational Sciences (NCATS), 2010)
Only a part is listed here, and it is no random draw. The source made the active and inactive calls. Calls come from the whole dose curve; as a rule, active = well fitted activation curve with a large enough effect; inconclusive = small, poorly fitted or top-dose-only effect; inactive = no such curve, though single readings can be large or run the other way.

Assay: qHTS Assay for Identifying a Potential Treatment of Ataxia-Telangiectasia; note: % of control where 0% means no effect; nearly all actives have a fitted effect of over 45% in size
Settings: […] A-T fibroblasts, KAP-1 phosphorylation AlphaLISA, neocarzinostatin DNA damage 30 min before lysis; at 57.5 µM (top of the series) unless noted
From the text: NIH Chemical Genomics Center [NCGC] NIH Molecular Libraries Probe Centers Network [MLPCN] MLPCN Grant: MH089030-01 Assay Submitter (PI): Wei Zheng and Yosef Shiloh Ataxia-telangiectasia (A-T) is a devastating and progressive disease for which, there is no cure. Although A-T is a multisystem disease, it is stereotyped characterized by its neurological symptoms such as truncal ataxia, due to cerebellar cortical degeneration of the Purkinje and granule cells. Other symptoms of A-T are telangiectasias (dilated blood vessels), primary immunodeficiency, marked sensitivity to ionizing radiation (IR), chromosomal instability and predisposition to cancer. The underlying genetic cause of A-T is null mutations in the ATM (A-T mutated) gene. ATM is a nuclear serine/threonine kinase that functions as a master regulator of the cellular responses to double strand breaks (DSBs) in the DNA. Upon activation by DSBs, ATM phosphorylates a plethora of down stream targets, including KAP-1 on […]. KAP-1 phosphorylation occurs shortly in response to DSBs and mediates global chromatin relaxation, which facilitates DSB repair. To screen for small molecules that will compensate for the loss of ATM in cells derived from A-T patients, we monitored KAP-1 phosphorylation as a readout for ATM-like activity using an AlphaLISA assay.
qHTS Assay Protocol: Step,Parameter,Value,Description 1. Cell Plating, 3 ul, 500 cells/well in OPTI-MEM, 1% FBS, 1% Pen/Strep 2. Incubation, 16-24 hr, 37C, 5% CO2, 95% humidity 3. Library compounds, 23 nl, 76.7 - 0.61uM dilution series final concentration 4. Incubation, 60 min, 37C, 5% CO2, 95% humidity 5. Reagent, 1 ul, 1600 ng/ml NCS in PBS + 0.05% BSA + 0.005% Tween 20 6. Incubation, 30 min, 37C, 5% CO2, 95% humidity 7. Reagent, 1 ul, Premixed detection reagents and lysis buffer 8. Reagent, 1 ul, 0.6% Antifoam A 9. Incubation, 6 hr, 25C, 95% humidity 10. Readout, EnVision, EnVision plate reader. AlphaScreen 1536-well protocol Cells were plated using medium-binding white solid-bottom tissue culture treated Kalypsys plates. Multidrop dispense of 3 uL of […] (hTERT immortalized A-T patient fibroblast cells). Detection reagent and lysis buffer was 3.75nM Rab-a-pKAP1 antibody bound to 75 ng/ul AlphaScreen SA donor bead, 3.75 nM Biot-M-a-KAP1 antibody bound to AlphaLISA protein A acceptor bead, 0.5x protease inhibitor cocktail and 0.25x PerkinElmer lysis buffer. EnVision protocol for 1536-well AlphaScreen read (30ms excitation, 100ms read), about 10 min/plate.

Row | Compound | activation
1 | CP(=O)(OC12CC3CC(CC(C3)C1)C2)OC12CC3CC(CC(C3)C1)C2 | inactive: 4.06%
2 | CCOC(=O)c1ccc(NP(C)(=O)Oc2ccc(Cl)cc2)cc1 (stereo unspecified) | inactive: 5.06%
3 | CP(=O)(Nc1ccc(Cl)cc1)Oc1ccc(F)cc1 (stereo unspecified) | inactive: 3.47%
4 | CC(C)(C)c1ccc(OP(C)(=O)O)cc1 | inactive: -0.212%
5 | COc1ccccc1OP(C)(=O)Nc1ccccc1Br (stereo unspecified) | inactive: 6.21%
6 | CN(C)C(=O)c1c([N+](=O)[O-])cc([N+](=O)[O-])cc1[N+](=O)[O-] | inactive: 8.95%
7 | COc1ccc(OP(C)(=O)Nc2ccc(Br)cc2)cc1 (stereo unspecified) | inactive: -3.02%
8 | CCN(CC)CC(O)COC(=O)C(O)(c1ccccc1)C1CCCCC1 (stereo unspecified) | inactive: 3.36%
9 | CCc1ccc(OP(C)(=O)Nc2cccnc2)cc1 (stereo unspecified) | inactive: 2.42%
10 | CP(=O)(Oc1ccccc1)N1CCOC1=O (stereo unspecified) | inactive: -0.433%
11 | O=C(OCCCN1CCCC1)C(O)(c1ccccc1)C1CCCCC1 (stereo unspecified) | inactive: 20.3%
12 | COc1ccccc1OP(C)(=O)Nc1c(C)n(C)n(-c2ccccc2)c1=O (stereo unspecified) | inactive: 0.669%
13 | O=[N+]([O-])c1cc([N+](=O)[O-])c(Nc2ccccn2)c([N+](=O)[O-])c1 | inactive: 2.53%
14 | Cc1c(NP(C)(=O)Oc2ccc(C(C)C)cc2)c(=O)n(-c2ccccc2)n1C (stereo unspecified) | inactive: -3.03%
15 | CCc1ccc(OP(C)(=O)O)cc1 | inactive: 27.1%
16 | COc1ccccc1OP(C)(=O)Nc1ccc(C)cc1C (stereo unspecified) | inactive: 7.91%
17 | CP(=O)(Nc1ccccn1)Oc1ccccc1 (stereo unspecified) | inactive: 2.74%
18 | COc1ccccc1OP(C)(=O)Nc1ccc(Br)cc1 (stereo unspecified) | inactive: 6.9%
19 | CN(C)CCOC(=O)C(O)(c1ccccc1)C1CCCC1 (stereo unspecified) | inactive: -2.83%
20 | Cc1nc2ccc3ccccc3c2o1.O=[N+]([O-])c1cc([N+](=O)[O-])c(O)c([N+](=O)[O-])c1 | inactive: -5.06%
21 | CP(=O)(OCCOc1ccccc1)OCCOc1ccccc1 | inactive: -3.1%
22 | CP(=O)(Nc1ccc(Cl)cc1Cl)Oc1ccccc1 (stereo unspecified) | inactive: 6.16%
23 | Cc1cc(C)cc(OP(C)(=O)Nc2cccc(C(F)(F)F)c2)c1 (stereo unspecified) | inactive: 2.32% [at 11.5 µM]
24 | COc1ccc(OP(C)(=O)Nc2ccccc2Br)cc1 (stereo unspecified) | inactive: -0.127%
25 | COc1ccccc1OP(C)(=O)Nc1ccc(C)c(C)c1 (stereo unspecified) | inactive: 4.6%
26 | CCCCCOc1ccc(NP(C)(=O)Oc2ccc(Cl)cc2Cl)cc1 (stereo unspecified) | inactive: 11.5%

Row | Compound | activation
27 | CP(=O)(Nc1ccccc1)Oc1ccc(F)cc1 (stereo unspecified) | inactive: -6.9%
28 | COc1ccc(OP(C)(=O)Nc2ccc(SC(F)(F)F)cc2)cc1 (stereo unspecified) | inactive: 6.76%
29 | CCOC(=O)c1ccc(NP(C)(=O)Oc2ccc(F)cc2)cc1 (stereo unspecified) | inactive: 9.44%
30 | O=C(OCCN1CCN(CCOCc2ccccc2)CC1)C(O)(c1ccccc1)c1ccccc1 | inactive: -2.2%
31 | CC(C)c1ccc(OP(C)(=O)Nc2ccc(SC(F)(F)F)cc2)cc1 (stereo unspecified) | inactive: -7.76%
32 | CP(=O)(Nc1ccccc1F)Oc1ccccc1 (stereo unspecified) | inactive: -1.73%
33 | CP(=O)(Nc1ccc2c(c1)OCCO2)Oc1ccccc1 (stereo unspecified) | inactive: -0.823%
34 | Cc1ccccc1NP(C)(=O)Nc1ccccc1C | inactive: -2.33%
35 | CP(=O)(Nc1ccc(SC(F)(F)F)cc1)Oc1ccc(F)cc1 (stereo unspecified) | inactive: -3.85%
36 | CCOP(C)(=S)SCC(=O)NC(C)(CC)C(=O)O (stereo unspecified) | inactive: -3.54%
37 | Cc1cc(-c2cccc3ccccc23)c(C)cn1.O=[N+]([O-])c1cc([N+](=O)[O-])c(O)c([N+](=O)[O-])c1 | inactive: -7.3%
38 | O=[N+]([O-])c1ccc(OP2(=O)COCCO2)cc1 (stereo unspecified) | inactive: 5.42%
39 | COc1ccc(OP(C)(=O)Nc2cccc(Br)c2)cc1 (stereo unspecified) | inactive: 0%
40 | COc1ccc(NP(C)(=O)Oc2ccccc2OC)cc1 (stereo unspecified) | inactive: 1.28%
41 | CN(C)CCOC(=O)C(O)(c1ccccc1)C1CCCCC1 (stereo unspecified) | inactive: 0.622%
42 | COc1ccccc1OP(C)(=O)Nc1c(C)cccc1C (stereo unspecified) | inactive: 7.54%
43 | CN1CCCCC1COC(=O)C1(O)c2ccccc2CCc2ccccc21 (stereo unspecified) | inactive: -1.56%
44 | CP(=O)(Nc1ccc(SC(F)(F)F)cc1)Oc1ccccc1 (stereo unspecified) | inactive: -0.962%
45 | CCCOc1ccc(NP(C)(=O)Oc2ccc(Cl)cc2)cc1 (stereo unspecified) | inactive: 15.1%
46 | O=[N+]([O-])c1cc([N+](=O)[O-])c(Nc2nnnn2CCO)c([N+](=O)[O-])c1 | inactive: -9.86%
47 | CC1=C2N=C(C=C3N=C(C(C)=C4[N-][C@@](C)([C@@H]5N=C1[C@](C)(CCC(=O)NC[C@@H](C)OP(=O)([O-])O[C@H]1[C@@H](O)[C@@H](n6cnc7cc(C)c(C)cc76)O[C@@H]1CO)[C@H]5CC(N)=O)[C@@](C)(CC(N)=O)[C@@H]4CCC(N)=O)[C@@](C)(CC(N)=O)[C@@H]3CCC(N)=O)C(C)(C)[C@@H]2CCC(N)=O.[C-]#N.[Co+3] | inactive: -18.1%
48 | Cc1nc2ccc3ccccc3c2s1.O=[N+]([O-])c1cc([N+](=O)[O-])c(O)c([N+](=O)[O-])c1 | inactive: 4.77%
49 | O=[N+]([O-])c1cc([N+](=O)[O-])c(-n2nnc3ccccc32)c([N+](=O)[O-])c1 | inactive: 4.9%
50 | CP(=O)(Nc1cccc(Br)c1)Oc1ccccc1 (stereo unspecified) | inactive: 7.81%
51 | Cc1cc(C)cc(OP(C)(=O)Nc2ccccn2)c1 (stereo unspecified) | inactive: -1.78%
52 | Cc1ccc(C)c(NP(C)(=O)Oc2ccccc2)c1 (stereo unspecified) | inactive: -12%

Row | Compound | activation
53 | COc1ccccc1OP(C)(=O)Nc1cccc(Br)c1 (stereo unspecified) | inactive: -9.09%
54 | CCOC(=O)c1ccc(NP(C)(=O)Oc2cc(C)cc(C)c2)cc1 (stereo unspecified) | inactive: 1.57%
55 | CC1=NCCc2c1[nH]c1ccccc21.O=[N+]([O-])c1cc([N+](=O)[O-])c(O)c([N+](=O)[O-])c1 | inactive: 0.105%
56 | CCOC(=O)c1ccc(NP(C)(=O)Oc2ccccc2)cc1 (stereo unspecified) | inactive: -4.92%
57 | Cc1ccc(NP(C)(=O)Oc2ccccc2)c(C)c1 (stereo unspecified) | inactive: 17.3%
58 | COc1ccccc1OP(C)(=O)Nc1ccc(C)cc1 (stereo unspecified) | inactive: 0.21%
59 | COc1ccccc1OP(C)(=O)Nc1cc(Cl)ccc1C (stereo unspecified) | inactive: 3.92% [at 11.5 µM]
60 | Cc1cc(C)cc(OP(C)(N)=O)c1 (stereo unspecified) | inactive: 3.35%
61 | O=[N+]([O-])c1cc([N+](=O)[O-])c(Nc2cccnc2)c([N+](=O)[O-])c1 | inactive: -1.31%
62 | Cc1cccc(C)c1OP(C)(N)=O (stereo unspecified) | inactive: 0.0532%
63 | CC(C)(C)c1ccc(OP(C)(=O)Nc2ccc(SC(F)(F)F)cc2)cc1 (stereo unspecified) | inactive: -4.58%
64 | O=[N+]([O-])c1ccc2c(c1)C=Nc1ccccc1O2 | inactive: 1.03%
65 | CCN(CC)CCCOC(=O)C(O)(c1ccccc1)c1ccccc1 | inactive: 4.67%
66 | CCOP(C)(=S)SCC(=O)NC(C)C(=O)O (stereo unspecified) | inactive: -4.63%
67 | CCOC(=O)c1ccc(NP(C)(=O)Oc2ccc(OC)cc2)cc1 (stereo unspecified) | inactive: 3.1%
68 | CP(=O)(Oc1ccccc1)OC(c1ccccc1)C(F)(F)F (stereo unspecified) | inactive: 3.31%
69 | Cc1cccc(C)c1OP(C)(=O)Nc1ccc(SC(F)(F)F)cc1 (stereo unspecified) | inactive: 0.534%
70 | CP(=O)(Nc1ccc(SC(F)(F)F)cc1)Oc1ccc(Cl)cc1 (stereo unspecified) | inactive: -9.09%
71 | Cc1cc(C)cc(OP(C)(=O)Nc2ccc(SC(F)(F)F)cc2)c1 (stereo unspecified) | inactive: 14.2%
72 | CCc1ccc(OP(C)(=O)N2CCN(c3ccc([N+](=O)[O-])cc3)CC2)cc1 (stereo unspecified) | inactive: -3.45%
73 | CP(=O)(NC(=O)Nc1ccccc1)Oc1ccccc1 (stereo unspecified) | inactive: 4.7%
74 | CP(=S)(Nn1cnnc1)Oc1ccccc1 (stereo unspecified) | inactive: 2.09%
75 | COc1ccccc1OP(C)(=O)Nc1ccccc1 (stereo unspecified) | inactive: -0.246%
76 | CP(=O)(Nc1ccccc1Br)Oc1ccccc1 (stereo unspecified) | inactive: 6.18%
